Values quoted from earlier work as cited in patent US9961896B2, “Cleaning liquid” (priority 2013, dated 2018).

Conditions: Table 5, comparison water treatments; cited from earlier work

**Q.** What does the source list for chlorine?
**A.** Does not degrade into or react with other pool or spa chemicals to form harmful disinfection by roducts: No; Low order of toxicity or preferably non toxic to humans, animals and plant life: Yes; Safe to handle: No; Suitable shelf life at storage temperatures for a minimum of 1 year: No
